This note sets out measurements from patent US9328099B2, “Cyanomethylpyrazole carboxamides as janus kinase inhibitors” (Merck Sharp & Dohme Corp., priority 2011, dated 2016).

Amino acid sequences for entries named in this document (tags omitted). Residues count along the entry.
UniProt O60674, 849-1124: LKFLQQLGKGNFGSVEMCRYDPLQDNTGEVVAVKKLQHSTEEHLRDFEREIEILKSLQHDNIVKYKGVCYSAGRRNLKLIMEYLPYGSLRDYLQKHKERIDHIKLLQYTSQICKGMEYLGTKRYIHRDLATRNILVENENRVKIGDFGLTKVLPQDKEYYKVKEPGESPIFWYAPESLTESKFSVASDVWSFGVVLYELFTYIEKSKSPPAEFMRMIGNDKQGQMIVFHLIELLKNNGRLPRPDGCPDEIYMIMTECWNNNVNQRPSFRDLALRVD
UniProt P23458, 875-1153: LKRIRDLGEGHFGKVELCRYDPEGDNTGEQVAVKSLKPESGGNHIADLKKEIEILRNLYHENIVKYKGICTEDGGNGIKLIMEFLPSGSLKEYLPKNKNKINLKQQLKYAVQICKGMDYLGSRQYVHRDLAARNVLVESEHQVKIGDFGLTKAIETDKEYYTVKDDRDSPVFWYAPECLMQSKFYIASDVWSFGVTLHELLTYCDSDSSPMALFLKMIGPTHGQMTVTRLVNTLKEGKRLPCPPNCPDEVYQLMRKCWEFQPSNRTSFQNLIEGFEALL

By IC50 is commonly meant the concentration at which inhibition is half-maximal. A higher IC50 goes with weaker potency.

Read-outs that look alike come from different tables or passages of the source.

The target of experiment [1] is JAK2 (Homo sapiens (Human), UniProt O60674). Nature of the experiment: Jak Biochemical HTRF Assay, JAK2. The source says:
(§1) Jak Biochemical HTRF Assay Protocol
(§2) Subsequent reagent additions employed an Agilent Bravo.
Background: Time-resolved FRET reads energy transfer from a long-lived donor to a nearby acceptor.

Experiment [2] addresses JAK1 (Homo sapiens (Human), UniProt P23458). Nature of the experiment: Jak Biochemical HTRF Assay, JAK1.
Description: as §1, §2

[3] abbreviates: HTRF biochemical assay, GST-tagged catalytic domain, top concentration tested […].

Consider `N#CCC1(n2cc(C(N)=O)c(Nc3ccc(F)cc3)n2)CCN(c2ccc(F)nc2)CC1` [Example 3-22, 1-[4-(cyanomethyl)-1-(6-fluoropyridin-3-yl)piperidin-4-yl]-3-[(4-fluorophenyl)amino]-1H-pyrazole-4-carboxamide], for which the IC50 in experiment [1] (setting [3]) was 12 nM. In the case of `N#CC[C@]1(n2cc(C(N)=O)c(Nc3ccc(F)cc3)n2)CC[C@H](n2cc(C3CC3)nn2)CC1` [Example 44-1, cis or Trans 1-[1-(cyanomethyl)-4-(4-cyclopropyl-1H-1,2,3-triazol-1-yl)cyclohexyl]-3-[(4-fluorophenyl)amino]-1H-pyrazole-4-carboxamide], half-maximal inhibition in experiment [2] (IC50) was put at 155 nM. This lies in the sub-micromolar range.

`C[C@H]1CN(C(=O)OC(C)(C)C)CC[C@]1(CC#N)n1cc(C(N)=O)c(Nc2ccccc2)n1` (single isomer, unassigned) [Example 48-2, tert-Butyl (3S,4R or 3R,4S)-4-[4-carbamoyl-3-(phenylamino)-1H-pyrazol-1-yl]-4-(cyanomethyl)-3-methylpiperidine-1-carboxylate]: the IC50 in experiment [2] (setting [3]) was 113 nM. The compound `N#CCC1(n2cc(C(N)=O)c(Nc3ccnc(F)c3)n2)CCN(C(=O)OC2CCOC2)CC1` (stereo not shown) [Example 30-16, tetrahydrofuran-3-yl 4-{4-carbamoyl-3-[(2-fluoropyridin-4-yl)amino]-1H-pyrazol-1-yl}-4-(cyanomethyl)piperidine-1-carboxylate] displayed an IC50 in experiment [1] (setting [3]) of 38 nM. `N#CCC1(n2cc(C(N)=O)c(Nc3ccccc3)n2)CCOCC1` [Example 6-5, 1-[4-(cyanomethyl)tetrahydro-2H-pyran-4-yl]-3-(phenylamino)-1H-pyrazole-4-carboxamide] had an IC50 in experiment [2] (setting [3]) of 13 nM. For the compound `N#CCC1(n2cc(C(N)=O)c(Nc3ccc(F)cc3)n2)CCC(Nc2cccc(Cl)c2)CC1` (stereo not drawn) [Example 40-46, Cis or trans 1-{4-[(3-chlorophenyl)aminol-1-(cyanomethyl)cyclohexyl}-3-[(4-fluorophenyl)amino]-1H-pyrazole-4-carboxamide], the figures for the IC50 in experiment [1] and in experiment [2] were 60 nM and 1 nM, respectively.
